Data on five compounds can be found in patent US20250388575A1, “HETEROBIFUNCTIONAL COMPOUNDS AND METHODS OF TREATING DISEASE” (Halda Therapeutics OpCo, Inc., priority 2022, published 2025).

The chains behind the UniProt entries cited, without tags or fusion partners. Residues count along the entry.
UniProt P06401, 679-913 limits assumed: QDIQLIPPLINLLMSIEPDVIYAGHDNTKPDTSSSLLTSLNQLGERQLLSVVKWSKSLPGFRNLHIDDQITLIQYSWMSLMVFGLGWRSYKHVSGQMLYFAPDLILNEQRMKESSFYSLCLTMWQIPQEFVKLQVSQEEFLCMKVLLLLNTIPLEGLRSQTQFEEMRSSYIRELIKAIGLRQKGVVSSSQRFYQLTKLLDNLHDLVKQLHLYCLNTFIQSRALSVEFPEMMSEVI

One assay has as its target BRD4-BD1 (Homo sapiens (Human), UniProt O60885). As to the kind of experiment: bromoKdELECT assay for binding affinity to BRD4-BD1. The following applies: 11-point 3-fold dilution. How it is done:
(§1) Compounds were tested using a bromoKdELECT assay. T7 phage strains displaying bromodomains were grown in parallel in 24-well blocks in an E. coli host derived from the BL21 strain. E. coli were grown to log-phase and infected with T7 phage from a frozen stock (multiplicity of infection=0.4) and incubated with shaking at 32° C. until lysis (90-150 minutes). The lysates were centrifuged (5,000×g) and filtered (0.2 μm) to remove cell debris. Streptavidin-coated magnetic beads were treated with biotinylated small molecule or acetylated peptide ligands for 30 minutes at room temperature to generate affinity resins for bromodomain assays. The liganded beads were blocked with excess biotin and washed with blocking buffer (SeaBlock (Pierce), 1% BSA, 0.05% Tween 20, 1 mM DTT) to remove unbound ligand and to reduce nonspecific phage binding. Binding reactions were assembled by combining bromodomains, liganded affinity beads, and test compounds in 1× binding buffer (17% SeaBlock, 0.33×PBS, 0.04% Tween 20, 0.02% BSA, 0.004% Sodium azide, 7.4 mM DTT). Test compounds were prepared as 1000× stocks in 100% DMSO. Kds were determined using an 11-point 3-fold compound dilution series with one DMSO control point. All compounds for Kd measurements are distributed by acoustic transfer (non-contact dispensing) in 100% DMSO. The compounds were then diluted directly into the assays such that the final concentration of DMSO was 0.09%. All reactions performed in polypropylene 384-well plates. Each was a final volume of 0.02 ml. The assay plates were incubated at room temperature with shaking for 1 hour and the affinity beads were washed with wash buffer (1×PBS, 0.05% Tween 20). The beads were then resuspended in elution buffer (1×PBS, 0.05% Tween 20, 2 μM non-biotinylated affinity ligand) and incubated at room temperature with shaking for 30 minutes. The bromodomain concentration in the eluates was measured by qPCR.

The test system of the next assay is VCaP cells. Description: Cellular growth inhibition assay for VCaP cells, CellTiter-Glo. The settings on record: 72 hours. How it is done: VCaP cells were purchased from American Type Cell Culture (ATCC Cat #CRL2876) and then seeded on poly-D-lysine coated, black clear-bottom 384-well plates at 5000/well in 25 μL Dulbecco's Modified Eagle Medium (DMEM) supplemented with 10% w/w Fetal bovine serum (FBS) and 1% w/w Pen-Strep. Pen-Strep is a commercially available mixture of penicillin G and streptomycin, which is used in mammalian cell culture media to prevent bacterial contamination. Dulbecco's Modified Eagle Medium (DMEM) supplemented with 10% w/w fetal bovine serum (FBS) and 1% w/w Pen-Strep is herein referred to as Treatment Medium. Following seeding of cells in the plates, the plates were spun at 300×g for 30 seconds, then equilibrated to room temperature for 30 minutes, and then deposited in a humidified tissue culture incubator maintained at 37° C. with 5% CO2.
(§2) At 24 hours after seeding of the cells, dilutions of test compound were prepared in DMSO and dissolved in Treatment Medium, to achieve a final DMSO concentration of 0.5% w/w, thereby providing the Test Compound Solution. A 25 μL aliquot of the Test Compound Solution was added to cells in the well plates. An equal volume of a solution containing DMSO and Treatment Medium was used as a negative control. Following treatment of cells with Test Compound Solution or said equal volume of a solution containing DMSO and Treatment Medium, the plates were spun at 300×g for 30 seconds, and then left in an incubator for 72 hours.
(§3) At the end of the treatment duration, cell viability was quantified with CellTiter-Glo 2.0 reagent (Promega Cat #G9243). For this purpose, plates were equilibrated to room temperature for 30 minutes, and then 25 μL of CellTiter-Glo 2.0 reagent was added to cells in the plate wells. Plates were then agitated on a shaker for two minutes at 500 rpm and subsequently incubated at room temperature for 10 minutes. Following incubation, the plates were spun at 3000×g for 30 seconds, then sealed with an optical adhesive cover, and luminescence readings were measured with an EnVision Plate Reader.
Data was normalized using zero luminescence for baseline. A four-parameter non-linear regression curve fit was applied to dose-response data in GraphPad Prism data analysis software to determine the half-maximal growth inhibitory concentration (GI50) for each test compound.

Assay [1] has as its system T-Rex 293 cell line SC3 cells lacking increased expression of androgen receptor protein. Description: Cellular growth inhibition, T-Rex 293 SC3 cells lacking increased androgen receptor expression (no doxycycline), CellTiter-Glo. The following applies: T-Rex 293 SC3 cells lacking increased androgen receptor expression (not exposed to doxycycline), 72 hours. How it is done:
(§4) The following types of cells were prepared for this experiment: (i) a T-Rex 293 cell line having increased expression of androgen receptor protein due to exposure to doxycycline and (ii) a T-Rex 293 cell line lacking increased expression of androgen receptor protein. Ability of the test compounds to inhibit proliferation of the foregoing cell types was evaluated according to the procedures set forth below.
(§5) The doxycycline-inducible androgen receptor protein expressing cell line was established using the following protocol: T-Rex 293 cells were purchased from Invitrogen (Cat #R71007) and transfected using Lipofectamine 2000 with the wild-type androgen receptor protein sequence cloned into the pcDNA4/TO vector. Transfected cells were selected using 400 μg/mL Zeocin (Invitrogen Cat #R25001). Following selection, single clones were raised and maintained in Dulbecco's Modified Eagle Medium (DMEM) supplemented with 10% w/w Tetracycline-free fetal bovine serum (FBS) and 250 μg/mL Zeocin. Clones were analyzed for expression of androgen receptor protein in the presence and absence of 10 ng/ml doxycycline (Sigma Cat #D9891), and a single doxycycline-inducible clone (hereinafter “SC3”) was selected for use in downstream assays.
(§6) The SC3 cells were seeded on poly-D-lysine coated, black clear-bottom 384-well plates at 2500/well, in 25 μL Phenol Red Free Dulbecco's Modified Eagle Medium (DMEM) supplemented with 10% w/w charcoal-dextran treated fetal bovine serum (FBS) and 1% w/w pen-strep, with or without 10 ng/mL doxycycline. Pen-Strep is a commercially available mixture of penicillin G and streptomycin, which is used in mammalian cell culture media to prevent bacterial contamination. Phenol Red Free Dulbecco's Modified Eagle Medium (DMEM) supplemented with 10% w/w charcoal-dextran treated fetal bovine serum (FBS) and 1% w/w pen-strep, with or without 10 ng/mL doxycycline is herein referred to as Treatment Medium. Following seeding of cells in the plates, the plates were spun at 300×g for 30 seconds, then equilibrated to room temperature for 30 minutes, and then deposited in a humidified tissue culture incubator maintained at 37° C. with 5% CO2.
as §2, §3
(§7) Data was normalized using zero luminescence for baseline. […]
(In ATP-based viability assays light output follows the ATP content of the culture.)

For assay [2], the system named is T-Rex 293 cell line SC3 cells having increased expression of androgen receptor protein. As to the kind of experiment: Cellular growth inhibition, T-Rex 293 SC3 cells with increased androgen receptor expression (doxycycline), CellTiter-Glo. The following applies: T-Rex 293 SC3 cells with increased androgen receptor expression (exposed to 10 ng/mL doxycycline), 72 hours. How it is done: as §4, §5, §6, §2, §3, §7

Another assay concerns the target BRD4-BD2 (Homo sapiens (Human), UniProt O60885). As to the kind of experiment: bromoKdELECT assay for binding affinity to BRD4-BD2. The settings on record: 11-point 3-fold dilution. How it is done: as §1
Assay [3] addresses progesterone receptor ligand binding domain (LBD) (Homo sapiens (Human), UniProt P06401). Description: FP assay for binding affinity to progesterone receptor (PolarScreen Progesterone Receptor Competitor Assay). The following applies: GST-tagged PR LBD, Fluormone tracer, fluorescence polarization, 2 hours at room temperature. How it is done: Compounds were tested using the PolarScreen™ Progesterone Receptor Competitor Assay Kit (Life Technologies Cat #A15905 or a15906), as per the manufacturer's instructions. Briefly, GST-tagged PR LBD, Fluormone tracer, and compound were mixed and incubated for 2 hours at room temperature in the dark. Following incubation, the plates were spun at 3000×g for 30 seconds, then sealed with an optical adhesive cover, and fluorescence polarization was measured using appropriate excitation and emission filters with an EnVision Plate Reader (Perkin Elmer). Compound concentration vs. mP value were plotted in Prism (GraphPad). A four-parameter non-linear regression curve fit was applied to dose-response data to determine the half-maximal inhibitory concentration (IC50) for each test compound.

The test system of a further assay is T47D cells. Description: Cellular growth inhibition assay for T47D cells, CellTiter-Glo. The following applies: 72 hours treatment, CellTiter-Glo 2.0. How it is done: T47D cells were purchased from American Type Cell Culture (ATCC Cat #HTB-133) and then seeded on poly-D-lysine coated, black clear-bottom 384-well plates at 3000/well in 25 μL Dulbecco's Modified Eagle Medium (DMEM) supplemented with 10% w/w Fetal bovine serum (FBS), 0.2 units/mL recombinant human insulin (Gibco Cat #12585014), and 1% w/w Pen-Strep. Pen-Strep is a commercially available mixture of penicillin G and streptomycin, which is used in mammalian cell culture media to prevent bacterial contamination. Dulbecco's Modified Eagle Medium (DMEM) supplemented with 10% w/w fetal bovine serum (FBS), 0.2 units/mL recombinant human insulin, and 1% w/w Pen-Strep is herein referred to as Treatment Medium. Following seeding of cells in the plates, the plates were spun at 300×g for 30 seconds, then equilibrated to room temperature for 30 minutes, and then deposited in a humidified tissue culture incubator maintained at 37° C. with 5% CO2. […]
At the end of the treatment duration, cell viability was quantified with CellTiter-Glo 2.0 reagent (Promega Cat #G9243). […] Following incubation, the plates were spun at 3000×g for 30 seconds, then sealed with an optical adhesive cover, and luminescence readings were measured with an EnVision Plate Reader (Perkin Elmer).
as §7

The structures appear in SMILES notation.

Regarding `CCS(=O)(=O)Nc1ccc(Oc2ccc(CCCOC3CCN(c4ccc(C(=O)N[C@H]5CC[C@H](Oc6ccc(C#N)c(Cl)c6)CC5)nn4)CC3)cc2)c(-c2cn(C)c(=O)c3[nH]ccc23)c1`, the dissociation constant (Kd) at BRD4-BD1 and at BRD4-BD2 was 0.05 to 0.5 µM in each case. Further, the GI50 (in the assay with VCaP cells; in assay [1]; in assay [2]) was below 0.5 µM in each case.
As for `CCS(=O)(=O)Nc1ccc(Oc2ccc(OCC3CCN(c4ccc(C(=O)N[C@H]5CC[C@H](Oc6ccc(C#N)c(Cl)c6)CC5)nn4)CC3)cc2)c(-c2cn(C)c(=O)c3[nH]ccc23)c1`, the Kd on BRD4-BD1 and on BRD4-BD2 was 0.05 to 0.5 µM throughout. Moreover, the GI50 was below 0.5 µM in the assay with VCaP cells, 1.5 to 3 µM in assay [1] and below 0.5 µM in assay [2].
As to `CCS(=O)(=O)Nc1ccc(OCC(OCCOC2CCN(c3ccc(C(=O)N[C@H]4CC[C@H](Oc5ccc(C#N)c(Cl)c5)CC4)nn3)CC2)C2CC2)c(-c2cn(C)c(=O)c3[nH]ccc23)c1` (stereo partly shown), the Kd at BRD4-BD1 and on BRD4-BD2 was 0.05 to 0.5 µM each time. Besides, the results for the concentration for 50% growth inhibition (GI50) (with VCaP cells; in assay [1]; in assay [2]) were below 0.5 µM, above 3 µM and below 0.5 µM, respectively.
Consider `Cn1cc(-c2cc(C(C)(C)O)ccc2Oc2ccc(CCOC3CCN(c4ccc(C(=O)N[C@H]5CC[C@H](Oc6ccc(C#N)c(Cl)c6)CC5)nn4)CC3)c(F)c2F)c2cc[nH]c2c1=O`, for which the Kd on BRD4-BD1 and at BRD4-BD2 was 0.5 to 2.5 µM each time. Moreover, the GI50 (in the assay on VCaP cells; in assay [1]; in assay [2]; in the assay with T47D cells) was below 0.5 µM in each case. The compound also registered an IC50 in assay [3] of 0.05 to 0.5 µM.
As to `Cn1cc(-c2cc(C(C)(C)O)ccc2Oc2ccc(CCC3CCN(c4ccc(C(=O)N[C@H]5CC[C@H](Oc6ccc(C#N)c(Cl)c6)CC5)nn4)CC3)nc2)c2cc[nH]c2c1=O`, the dissociation constant (Kd) on BRD4-BD1 and on BRD4-BD2 was 0.05 to 0.5 µM in each case. In addition, the GI50 in the assay with VCaP cells was below 0.5 µM; in assay [1] it was 0.5 to 1.5 µM; in assay [2], below 0.5 µM; in the assay on T47D cells it was below 0.5 µM.

Usually Kd stands for the constant that tells how readily two partners part at equilibrium. What is called GI50 is the concentration giving 50% growth inhibition. Higher therefore signals lower sensitivity of the cells. The IC50 is the concentration that inhibits the measured activity by half.
